# Data published in PubChem BioAssay AID588382 (National Center for Advancing Translational Sciences (NCATS), 2011).
# Only a part is listed here, and it is no random draw. Results filed as inconclusive are left out. The source made the active and inactive calls. Calls follow the shape of the dose curve; as a rule, active = well fitted cell-killing curve with a large enough effect; inconclusive = small, poorly fitted or top-dose-only effect, or effect the other way; inactive = flat fitted curve, though single readings scatter.
# Assay: qHTS of small molecules that selectively kill Giardia lamblia: Hit Validation in HepG2 cytotox;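 also: compound exposure lasted overnight at 37 deg C; nearly all actives have a fitted effect of over 55% in size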
# Conditions: HepG2 cytotoxicity, cell viability
# From the text: Giardia lamblia is a human pathogen afflicting impoverished nations, and the most common cause of outbreaks of diarrhea in the United States. Giardia has been classified by the CDC as a category B bioterrorism organism. The favored anti giardiasis drugs in the US are metronidazole or tinidazole, compounds that have undesirable side effects. Moreover, increasing resistance to drug regimes and recurrence are a concern. It is thus clear that alternative drug treatments are needed.
# In a collaboration between the University of Maryland, College Park and the NIH Chemical Genomics Center, a bioluminescence Giardia viability assay based on the trophozoites' ATP content was developed. This assay is suitable for high throughput screening, and miniaturized the assay for compound screening in 1536-well plates. The goal of the project is to screen the Molecular Libraries Small Molecule Repository (MLSMR) for compounds that selectively kill Giardia trophozoites. This counterscreen looks at the toxicity of the compounds against the human HepG2 cell line.
# NIH Chemical Genomics Center [NCGC]
# NIH Molecular Libraries Probe Centers Network [MLPCN]
# Assay Submitter (PI): Osnat Herzberg, University of Maryland, College Park, MD.
# 4 uL of HepG2 cells ae dispensed into white 1536-well plates. They are incubated overnight at 37 deg C and then 23 nL of compounds are transferred to the wells with a pintool. Plates are incubated overnight at 37 deg C. 2 uL of ATPLite is added and the plates are incubated for 15 min at room temperature before they are read on the ViewLux for luminiescence.
# Potency is read from the fitted curve at half-maximal effect.
row,Compound,Potency
1,CC1=CC2OC3CC4OC(=O)C=CC=CC(=O)OCCC(C)C(O)C(=O)OCC2(CC1O)C4(C)C31CO1 (stereo not drawn),active: 0.104 µM
2,O=[N+]([O-])c1cc([N+](=O)[O-])c(Nc2ccccn2)c([N+](=O)[O-])c1,active: 9.27 µM
3,O=[N+]([O-])c1cc([N+](=O)[O-])c(Nc2cccnc2)c([N+](=O)[O-])c1,active: 13.1 µM
